Values of other authors as cited in patent publication US4988684A, “Novel 4-alkylthio-steroids” (Roussel Uclaf, priority 1988, dated 1991).

Tested on: Aromatase
Settings: it attacks enzymatic processes other than that leading from androgens to estrogens; cited from earlier work

CCC1(c2ccc(N)cc2)CCC(=O)NC1=O (stereo not shown) [Aminogluthetimide]
specificity for Aromatase: not to be specific for Aromatase
